In patent US20240317827A1, “LINEAR PEPTIDES INHIBITING CK2-MEDIATED PHOSPHORYLATION AND COMPOSITIONS COMPRISING SAME” (CENTRO DE INGENIERÍA GENÉTICA Y BIOTECNOLOGÍA, priority 2021, published 2024):

Assays:
[1] = tested on: OCI-AML3 (acute myeloid leukemia-3) cell line; assay: cell proliferation assay, OCI-AML3 line; type: cell-based; settings: Table 7
Method: (§1) The evaluation of the antiproliferative activity of synthetic polypeptides A15P35, A15P36 and A15P37 (SEQ ID NO: 46-SEQ ID NO: 48) was performed on the NCI-H125, AsPC-1, PanC-1 (pancreatic carcinoma) and OCI-AML3 (acute myeloid leukemia-3) cell lines. The test was carried out according to the procedure previously described (Perera Y, et al., 2012, J. Pept. Sci, 18 (4):215-23). […] The polypeptides A15P35, A15P36 and A15P37 were able to produce a dose-dependent effect on the proliferation of NCI-H125 cells.

[2] = tested on: AsPC-1 cell line (pancreatic adenocarcinoma); type: cell-based; settings: Table 7
Method: The cell proliferation assay was performed following the procedure previously described (Perera Y, et al., 2012, J. Pept. Sci, 18 (4):215-23).
as §1

[3] = tested on: PanC-1 (pancreatic carcinoma) cell line; assay: cell proliferation assay, PanC-1 line; type: cell-based; settings: Table 7
Method: as §1

[4] = tested on: NCI-H125 cell line (non-small cell lung cancer); assay: cell proliferation assay, NCI-H125 line; type: cell-based
Method: The evaluation of the antiproliferative activity of polypeptides F11P13-F11P21 (SEQ ID NO: 12-SEQ ID NO: 20) was performed on the NCI-H125 cell line. […] The antiproliferative effect of the CIGB-300 peptide has been widely characterized in this line (Cirigliano S. M., et al., 2017, Cancer Cell International, 17, 42), therefore, it was selected as a positive control. Tat peptide was used as a negative control. The polypeptides were evaluated at the concentrations of 25, 50, 100 and 200 μM. The cell proliferation assay was performed by a previously described procedure (Perera Y., et al., 2012, J. Pept. Sci, 18 (4):215-23).
The 24 polypeptides identified as SEQ ID NO: 21-SEQ ID NO: 44 maintained the ability to inhibit the phosphorylation of the E7 protein of HPV-16, mediated by CK2, since phosphorylation inhibition values between 60-85% were obtained. […] Evaluation of the antiproliferative activity of synthetic polypeptides generated by positional scanning of Trp (SEQ ID NO: 21-SEQ ID NO: 44) was performed on the NCI-H125 cell line. The test was performed by the procedure previously described. (Perera Y., et al., 2012, J. Pept. Sci, 18 (4): 215-23). Precursor polypeptides (F11P19, F11P20, F11P21) and peptide CIGB-300 were included as positive controls. The polypeptides were evaluated at the concentrations of 12.5; 25; fifty; 100 and 200 μM.
as §1
(§2) Antiproliferative assays were performed on the NCI-H125, Hep2C (laryngeal carcinoma) cell lines, and on two bladder cancer lines (MGH-U3 and MGH-U4). The test was carried out according to the procedure previously described (Perera Y., et al, 2012, Pept. Sci, 18 (4):215-23).

[5] = tested on: MGH-U4 bladder cancer line; assay: cell proliferation assay, MGH-U4 line; type: cell-based; settings: Table 9
Method: as §2

[6] = tested on: Hep2C (laryngeal carcinoma) cell line; assay: cell proliferation assay, Hep2C line; type: cell-based; settings: Table 9
Method: as §2

[7] = tested on: MGH-U3 bladder cancer line; assay: cell proliferation assay, MGH-U3 line; type: cell-based, human; settings: Table 9
Method: as §2

[8] = tested on: MGH-U3 cells, from bladder cell carcinoma, implanted subcutaneously; assay: human bladder tumor model implanted in athymic mice; type: in vivo, athymic female BalbC mice; settings: 20 μg (1 mg/kg) intraperitoneally, 5 consecutive days, started 5 days after inoculation; FIG. 10
From the text: For these tests, athymic female BalbC mice, between 6 and 8 weeks old, were used. MGH-U3 cells, from bladder cell carcinoma, were used. For tumor implantation in this model, cells were suspended in PBS at a concentration of 1 000 000 cells per milliliter. The cell suspension was inoculated subcutaneously in the abdominal cavity of the animals. Administration of E17P01 polypeptide (identified as SEQ ID NO: 51) or CIGB-300 was started 5 days after the tumor cells were inoculated, and continued for 5 consecutive days, intraperitoneally. The polypeptide and peptide were dissolved in PBS. The administered dose was 20 μg, which corresponds to 1 mg/kg of weight. At different times, the tumor volume (in mm^3) was measured, as a parameter to evaluate the antitumor effect of the polypeptide.

[9] = Table 7, read-out: IC50 (μM) NCI-H125
[10] = Table 9, read-out: IC50 (μM) NCl-H125

SMILES	IC50 [1]	IC50 [2]	IC50 [3]	percentage of inhibition of cell proliferation ([4]; NCI-H125, concentrations 100 and 200 μM)	IC50 ([4]; NCI-H125, read-out: IC50 (dose-effect curves))	IC50 [4, 9]	IC50 [5]	IC50 [4, 10]	IC50 [6]	IC50 [7]	antitumor effect (tumor volume, tumor progression) [8]
N=C(N)NCCC[C@H](NC(=O)CN)C(=O)N[C@@H](CCCCN)C(=O)N[C@@H](CCCCN)C(=O)N[C@@H](CCCNC(=N)N)C(=O)N[C@@H](CCCNC(=N)N)C(=O)N[C@@H](CCC(N)=O)C(=O)N[C@@H](CCCNC(=N)N)C(=O)N[C@@H](CCCNC(=N)N)C(=O)N[C@@H](CCCNC(=N)N)C(=O)N1CCC[C@H]1C(=O)N1CCC[C@H]1C(=O)N[C@@H](CCC(N)=O)C(=O)NCCC(=O)N[C@@H](CCCNC(=N)N)C(=O)N[C@@H](CCCCN)C(=O)N[C@@H](CCCNC(=N)N)C(=O)N[C@@H](CO)C(=O)N[C@@H](CCCNC(=N)N)C(=O)N[C@@H](Cc1ccc(O)cc1)C(=O)N[C@@H](Cc1c[nH]c2ccccc12)C(=O)N1CCC[C@H]1C(N)=O [A14P46, GRKKRRQRRRPPQ-βA-RKRSRYWP]	70 µM	125 µM	166 µM	more than 50%	72 µM	72 µM	–	–	–	–	–
CC(=O)NCC(=O)N[C@@H](CCCNC(=N)N)C(=O)N[C@@H](CCCCN)C(=O)N[C@@H](CCCCN)C(=O)N[C@@H](CCCNC(=N)N)C(=O)N[C@@H](CCCNC(=N)N)C(=O)N[C@@H](CCC(N)=O)C(=O)N[C@H](CCCNC(=N)N)C(=O)N[C@@H](CCCNC(=N)N)C(=O)N[C@@H](CCCNC(=N)N)C(=O)N1CCC[C@H]1C(=O)N1CCC[C@H]1C(=O)N[C@@H](CCC(N)=O)C(=O)NCCC(=O)N[C@@H](CCCNC(=N)N)C(=O)N[C@@H](CCCCN)C(=O)N[C@@H](CCCNC(=N)N)C(=O)N[C@@H](CO)C(=O)N[C@@H](Cc1c[nH]c2ccccc12)C(=O)N(C)[C@@H](Cc1ccc(O)cc1)C(=O)N[C@@H](Cc1c[nH]c2ccccc12)C(=O)N1CCC[C@H]1C(N)=O [D17P80, Ac-GRKKRRQ(D-Arg)RRPPQ-βA-RKRSW(NMe-Tyr)WP]	–	–	–	–	–	–	70 µM	13 µM	24 µM	65 µM	–
CC(=O)NCC(=O)N[C@@H](CCCNC(=N)N)C(=O)N[C@@H](CCCCN)C(=O)N[C@@H](CCCCN)C(=O)N[C@@H](CCCNC(=N)N)C(=O)N[C@@H](CCCNC(=N)N)C(=O)N[C@@H](CCC(N)=O)C(=O)N[C@H](CCCNC(=N)N)C(=O)N[C@@H](CCCNC(=N)N)C(=O)N[C@@H](CCCNC(=N)N)C(=O)N1CCC[C@H]1C(=O)N1CCC[C@H]1C(=O)N[C@@H](CCC(N)=O)C(=O)NCCC(=O)N[C@@H](CCCNC(=N)N)C(=O)N[C@H](CCCCN)C(=O)N[C@@H](CCCNC(=N)N)C(=O)N[C@@H](Cc1c[nH]c2ccccc12)C(=O)N[C@@H](CCCNC(=N)N)C(=O)N[C@@H](Cc1ccc(O)cc1)C(=O)N[C@@H](Cc1c[nH]c2ccccc12)C(=O)N1CCC[C@H]1C(N)=O [E17P01, Ac-GRKKRRQ(D-Arg)RRPPQ-βA-R(D-Lys)RWRYWP]	–	–	–	–	–	–	53 µM	20 µM	11 µM	65 µM	ability to inhibit tumor progression, which was greater than that observed for CIGB-300
N=C(N)NCCC[C@H](NC(=O)CN)C(=O)N[C@@H](CCCCN)C(=O)N[C@@H](CCCCN)C(=O)N[C@@H](CCCNC(=N)N)C(=O)N[C@@H](CCCNC(=N)N)C(=O)N[C@@H](CCC(N)=O)C(=O)N[C@@H](CCCNC(=N)N)C(=O)N[C@@H](CCCNC(=N)N)C(=O)N[C@@H](CCCNC(=N)N)C(=O)N1CCC[C@H]1C(=O)N1CCC[C@H]1C(=O)N[C@@H](CCC(N)=O)C(=O)NCCC(=O)N[C@@H](CCCNC(=N)N)C(=O)N[C@@H](CCCCN)C(=O)N[C@@H](CCCNC(=N)N)C(=O)N[C@@H](Cc1c[nH]c2ccccc12)C(=O)N[C@@H](CCCNC(=N)N)C(=O)N[C@@H](Cc1ccc(O)cc1)C(=O)N[C@@H](Cc1c[nH]c2ccccc12)C(=O)N1CCC[C@H]1C(N)=O [A15P36, GRKKRRQRRRPPQ-βA-RKRWRYWP]	9 µM	26 µM	54 µM	–	–	42 µM	–	42 µM	44 µM	–	–
CC(=O)NCC(=O)N[C@@H](CCCNC(=N)N)C(=O)N[C@@H](CCCCN)C(=O)N[C@@H](CCCCN)C(=O)N[C@@H](CCCNC(=N)N)C(=O)N[C@@H](CCCNC(=N)N)C(=O)N[C@@H](CCC(N)=O)C(=O)N[C@H](CCCNC(=N)N)C(=O)N[C@@H](CCCNC(=N)N)C(=O)N[C@@H](CCCNC(=N)N)C(=O)N1CCC[C@H]1C(=O)N1CCC[C@H]1C(=O)N[C@@H](CCC(N)=O)C(=O)NCCC(=O)N[C@@H](CCCNC(=N)N)C(=O)N[C@@H](CCCCN)C(=O)N[C@@H](CCCNC(=N)N)C(=O)N[C@@H](Cc1c[nH]c2ccccc12)C(=O)N[C@@H](CCCNC(=N)N)C(=O)N(C)[C@@H](Cc1ccc(O)cc1)C(=O)N[C@@H](Cc1c[nH]c2ccccc12)C(=O)N1CCC[C@H]1C(N)=O [E17P03, Ac-GRKKRRQ(D-Arg)RRPPQ-βA-RKRWR(NMe-Tyr)WP]	–	–	–	–	–	–	33 µM	47 µM	11 µM	29 µM	–
N=C(N)NCCC[C@H](NC(=O)CN)C(=O)N[C@@H](CCCCN)C(=O)N[C@@H](CCCCN)C(=O)N[C@@H](CCCNC(=N)N)C(=O)N[C@@H](CCCNC(=N)N)C(=O)N[C@@H](CCC(N)=O)C(=O)N[C@@H](CCCNC(=N)N)C(=O)N[C@@H](CCCNC(=N)N)C(=O)N[C@@H](CCCNC(=N)N)C(=O)N1CCC[C@H]1C(=O)N1CCC[C@H]1C(=O)N[C@@H](CCC(N)=O)C(=O)NCCC(=O)N[C@@H](CCCNC(=N)N)C(=O)N[C@@H](CCCCN)C(=O)N[C@@H](CCCNC(=N)N)C(=O)N[C@@H](CO)C(=O)N[C@@H](Cc1c[nH]c2ccccc12)C(=O)N[C@@H](Cc1ccc(O)cc1)C(=O)N[C@@H](Cc1c[nH]c2ccccc12)C(=O)N1CCC[C@H]1C(N)=O [A15P37, GRKKRRQRRRPPQ-βA-RKRSWYWP]	21 µM	23 µM	65 µM	–	–	46 µM	–	46 µM	48 µM	–	–

Like-named read-outs stand apart in the source and are kept apart here.
